1 compound from ChEMBL document CHEMBL3352010, “Synthesis and Pharmacology of a Novel κ Opioid Receptor (KOR) Agonist with a 1,3,5-Trioxazatriquinane Skeleton” (ACS Med Chem Lett, 2014) can be followed below.

Sequences of proteins named here, by UniProt entry; tags and fusion partners are left off. A change or cut given only in a name is not applied to a line headed by its entry.
UniProt P41144: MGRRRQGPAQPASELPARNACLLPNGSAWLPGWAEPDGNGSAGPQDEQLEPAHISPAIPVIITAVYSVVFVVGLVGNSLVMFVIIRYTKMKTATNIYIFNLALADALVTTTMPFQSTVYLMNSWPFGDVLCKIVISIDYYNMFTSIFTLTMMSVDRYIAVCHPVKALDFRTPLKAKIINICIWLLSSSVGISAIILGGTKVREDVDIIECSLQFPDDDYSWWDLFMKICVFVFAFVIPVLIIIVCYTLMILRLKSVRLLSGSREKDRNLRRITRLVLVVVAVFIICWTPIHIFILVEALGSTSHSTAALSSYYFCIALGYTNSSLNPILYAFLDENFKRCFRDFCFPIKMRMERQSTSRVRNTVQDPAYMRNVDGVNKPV

The assay addresses Kappa-type opioid receptor (Cavia porcellus, UniProt P41144). The experiment in a line: Displacement of [3H]U69593 from kappa opioid receptor in guinea pig cerebellum.

Broadly, the Ki is a measure of affinity in units of concentration, obtained from inhibition or displacement. A high value points to weaker binding. The compound `CN(C(=O)Cc1ccc(Cl)c(Cl)c1)C1CCCCC1N1CCCC1` (stereo unspecified) yielded a Ki of 1.67 nM.
